Columns and labels:
Pin1 [1] = biological target: T1, Pin1 (Homo sapiens, UniProt Q13526); assay: DELFIA displacement assay (displacement of biotinylated D-peptide from 6His-Pin1); details: read-out: DELFIA IC50; running text and figure legends
Pin1 [2] = biological target: T1, Pin1; assay: PIN1 degradation in pancreatic cancer cell lines; type: cell-based; details: read-out: DC50s, PIN1 degradation in cell; pancreatic cancer cell lines tested (FIG. 16)
Experimental: FIGS. 15A-15E. The agents also cause PIN1 degradation in the pancreatic cancer cell line BxPC3 (FIG. 15A), MiaPaca-2 (FIG. 15B), or PANC-1 (FIG. 15C). In the example, cells were treated with 0.1% DMSO or 15 μM of the reported agents for 24 h and PIN1 levels were quantified. Compounds 158H9 and 164A10 are potent PIN1 binders with IC50 values of 21.5 and 4.1 nM, respectively (FIG. 15D). The agents also cause thermal destabilization of PIN1 with ΔTm values of −8.41 and −8.95° C., respectively (FIG. 15E).
FIG. 16. […] 164B8 retains its PIN1 binding affinity (DELFTA assay IC50 4.85 nM) and PIN1 degradation in cell (DC50s˜500 nM in the pancreatic cancer cell lines tested. Cell killing is improved likely due to improved cell permeability associated with the N-methylation as shown for MiaPaca2 and KPC cell lines (EC50 8.4 μM and 5.3 μM, respectively.
At the end of the treatments, cells were lysed with a lysis buffer containing 20 mM Tris, pH 7.4, 120 mM NaCl, 1% Triton X-100, 0.5% sodium deoxycholate, 0.1% SDS, 1% IGEPAL, 5 mM EDTA, protease inhibitor cocktail and PhosSTOP (Sigma-Aldrich). Lysates were then centrifuged at 16,000×g for 20 min at 4° C. and supernatants were collected. Protein concentrations were determined using the Pierce BCA Protein Assay Kit (ThermoFisher Scientific) according to the manufacturer's instruction. […]

Protein sequences, listed by entry. Tags and fused reporters are not part of them.
UniProt Q13526, whole entry: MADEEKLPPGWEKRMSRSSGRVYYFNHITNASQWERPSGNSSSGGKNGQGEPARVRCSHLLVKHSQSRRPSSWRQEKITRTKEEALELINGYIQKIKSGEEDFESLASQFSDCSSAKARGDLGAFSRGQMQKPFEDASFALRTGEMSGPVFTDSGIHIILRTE

IC50 (Pin1 [1]): 4.85 nM | EC50 (Pin1 [2]): 500 nM
Structure (SMILES): CNC(=O)C(Cc1c[nH]c2ccccc12)NC(=O)C1CCCCN1C(=O)C(Cc1c[nH]c2cc(Cl)ccc12)NC(=O)CCl (centres unmarked)

Source: patent publication US20250296955A1, “PIN1 TARGETING COMPOUNDS AND DEGRADERS AND METHODS THEREOF” (The Regents of the University of California, priority 2024, published 2025)
